Source: ChEMBL document CHEMBL1909046, “DrugMatrix in vitro pharmacology data”

Chains of the proteins cited; added tags and fusions are not shown. Lines headed by an entry give the natural chain unless they say otherwise; changes in a name come on top.
UniProt P41145: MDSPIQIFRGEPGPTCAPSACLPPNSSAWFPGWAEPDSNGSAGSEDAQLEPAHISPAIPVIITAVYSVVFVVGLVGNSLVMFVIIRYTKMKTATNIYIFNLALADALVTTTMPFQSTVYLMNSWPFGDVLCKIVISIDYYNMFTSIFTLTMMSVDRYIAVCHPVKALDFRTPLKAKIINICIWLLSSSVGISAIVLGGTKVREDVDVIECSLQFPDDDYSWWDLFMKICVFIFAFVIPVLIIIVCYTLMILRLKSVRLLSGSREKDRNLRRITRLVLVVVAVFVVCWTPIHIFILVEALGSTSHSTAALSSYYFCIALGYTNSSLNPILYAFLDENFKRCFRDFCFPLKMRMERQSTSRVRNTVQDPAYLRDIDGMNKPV
UniProt P35372, whole entry, looked up: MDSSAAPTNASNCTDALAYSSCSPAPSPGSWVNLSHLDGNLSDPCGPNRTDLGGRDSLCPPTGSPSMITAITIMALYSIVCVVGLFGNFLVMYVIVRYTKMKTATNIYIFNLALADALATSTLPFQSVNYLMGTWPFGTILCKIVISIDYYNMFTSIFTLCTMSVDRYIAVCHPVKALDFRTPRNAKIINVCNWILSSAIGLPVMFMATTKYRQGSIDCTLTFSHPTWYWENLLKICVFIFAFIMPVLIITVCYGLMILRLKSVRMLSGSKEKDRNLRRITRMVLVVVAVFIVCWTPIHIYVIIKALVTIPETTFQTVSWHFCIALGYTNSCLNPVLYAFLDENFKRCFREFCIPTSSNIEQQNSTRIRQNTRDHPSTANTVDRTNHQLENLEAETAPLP

How the values were obtained:
[1] = target: Kappa-type opioid receptor (Homo sapiens, UniProt P41145); assay: DRUGMATRIX: Opiate kappa (OP2, KOP) radioligand binding (ligand: [3H] Diprenorphine); settings: hek293
Mu-type opioid receptor = Mu-type opioid receptor (Homo sapiens, UniProt P35372); assay: DRUGMATRIX: Opiate mu (OP3, MOP) radioligand binding (ligand: [3H] Diprenorphine); settings: cho-k1

OC[C@@H](O)[C@@H](O)[C@H](O)[C@H](O)CO
Not Active: IC50 [1] | Ki [1]

Nc1nc(N)nc(NC2CC2)n1 [CYROMAZINE]
Not Active: IC50 [1] | Ki [1] | IC50 (Mu-type opioid receptor) | Ki (Mu-type opioid receptor)

C[N+](C)(C)CCOC(=O)CCC(=O)OCC[N+](C)(C)C.[Cl-].[Cl-]
Not Active: IC50 [1] | Ki [1]

C[C@]12CC[C@H]3[C@@H](CCC4=CC(=O)CC[C@@H]43)[C@@H]1CC[C@@H]2O
Not Active: IC50 [1] | Ki [1] | IC50 (Mu-type opioid receptor) | Ki (Mu-type opioid receptor)

C[C@@H]1O[C@@H](O[C@H]2C[C@@H](O)[C@]3(CO)[C@H]4[C@H](O)C[C@]5(C)[C@@H](C6=CC(=O)OC6)CC[C@]5(O)[C@@H]4CC[C@]3(O)C2)[C@H](O)[C@H](O)[C@H]1O
Not Active: IC50 [1] | Ki [1] | IC50 (Mu-type opioid receptor) | Ki (Mu-type opioid receptor)

C[C@@]12C(=O)OC(=O)[C@]1(C)[C@H]1CC[C@@H]2O1
Not Active: IC50 [1] | Ki [1] | IC50 (Mu-type opioid receptor) | Ki (Mu-type opioid receptor)

C=C(C)[C@H]1Cc2c(ccc3c2O[C@@H]2COc4cc(OC)c(OC)cc4[C@@H]2C3=O)O1 [ROTENONE]
Not Active: IC50 [1] | Ki [1] | IC50 (Mu-type opioid receptor) | Ki (Mu-type opioid receptor)

O=[As][O-].[Na+]
Not Active: IC50 [1] | Ki [1] | IC50 (Mu-type opioid receptor) | Ki (Mu-type opioid receptor)

O=C(O)C(Cl)(Cl)Cl [TRICHLOROACETIC ACID]
Not Active: IC50 [1] | Ki [1] | IC50 (Mu-type opioid receptor) | Ki (Mu-type opioid receptor)
